# Results as given in patent publication US9078909B2, “Tertiary amines, medicaments containing said amines, use thereof and processes for the preparation thereof” (Boehringer Ingelheim International GmbH, priority 2012, dated 2015).
# By UniProt entry, the sequences of proteins in these tests, tags left out.
# UniProt Q61180, whole entry: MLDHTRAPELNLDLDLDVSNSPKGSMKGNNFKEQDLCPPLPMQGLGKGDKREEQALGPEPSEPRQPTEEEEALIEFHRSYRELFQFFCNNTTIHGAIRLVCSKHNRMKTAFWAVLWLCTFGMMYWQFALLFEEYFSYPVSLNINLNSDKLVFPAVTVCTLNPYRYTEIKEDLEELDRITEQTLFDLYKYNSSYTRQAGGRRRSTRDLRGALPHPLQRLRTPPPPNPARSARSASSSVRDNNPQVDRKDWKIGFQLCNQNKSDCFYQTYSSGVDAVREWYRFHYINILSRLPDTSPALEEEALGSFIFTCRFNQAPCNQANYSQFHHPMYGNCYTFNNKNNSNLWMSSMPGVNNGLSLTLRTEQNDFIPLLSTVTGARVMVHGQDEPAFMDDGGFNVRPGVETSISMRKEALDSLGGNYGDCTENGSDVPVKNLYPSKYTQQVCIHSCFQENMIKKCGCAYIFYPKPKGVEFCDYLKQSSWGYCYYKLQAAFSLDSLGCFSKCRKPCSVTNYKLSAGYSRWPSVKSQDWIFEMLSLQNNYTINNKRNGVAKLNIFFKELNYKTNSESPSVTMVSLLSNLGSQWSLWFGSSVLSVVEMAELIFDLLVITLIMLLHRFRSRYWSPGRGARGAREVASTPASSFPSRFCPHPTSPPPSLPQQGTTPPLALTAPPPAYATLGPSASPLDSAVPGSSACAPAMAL
# UniProt Q9WU38, whole entry: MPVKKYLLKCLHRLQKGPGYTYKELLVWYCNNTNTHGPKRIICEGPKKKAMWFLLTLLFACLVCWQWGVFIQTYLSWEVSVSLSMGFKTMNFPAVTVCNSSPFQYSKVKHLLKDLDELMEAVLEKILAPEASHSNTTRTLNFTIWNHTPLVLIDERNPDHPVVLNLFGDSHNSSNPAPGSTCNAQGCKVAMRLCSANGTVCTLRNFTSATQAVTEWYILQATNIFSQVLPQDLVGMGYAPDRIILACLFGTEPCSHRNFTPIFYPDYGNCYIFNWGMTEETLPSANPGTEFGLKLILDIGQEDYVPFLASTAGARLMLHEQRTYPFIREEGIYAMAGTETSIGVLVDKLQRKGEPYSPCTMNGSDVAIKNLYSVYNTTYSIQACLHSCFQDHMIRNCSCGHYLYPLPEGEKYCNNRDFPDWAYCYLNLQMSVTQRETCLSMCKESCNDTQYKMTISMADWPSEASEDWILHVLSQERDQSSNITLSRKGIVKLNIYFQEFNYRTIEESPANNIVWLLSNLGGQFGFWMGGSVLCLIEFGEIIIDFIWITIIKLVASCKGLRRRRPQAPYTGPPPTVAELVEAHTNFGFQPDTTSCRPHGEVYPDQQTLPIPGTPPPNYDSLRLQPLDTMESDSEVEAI
# UniProt Q9WU39, whole entry: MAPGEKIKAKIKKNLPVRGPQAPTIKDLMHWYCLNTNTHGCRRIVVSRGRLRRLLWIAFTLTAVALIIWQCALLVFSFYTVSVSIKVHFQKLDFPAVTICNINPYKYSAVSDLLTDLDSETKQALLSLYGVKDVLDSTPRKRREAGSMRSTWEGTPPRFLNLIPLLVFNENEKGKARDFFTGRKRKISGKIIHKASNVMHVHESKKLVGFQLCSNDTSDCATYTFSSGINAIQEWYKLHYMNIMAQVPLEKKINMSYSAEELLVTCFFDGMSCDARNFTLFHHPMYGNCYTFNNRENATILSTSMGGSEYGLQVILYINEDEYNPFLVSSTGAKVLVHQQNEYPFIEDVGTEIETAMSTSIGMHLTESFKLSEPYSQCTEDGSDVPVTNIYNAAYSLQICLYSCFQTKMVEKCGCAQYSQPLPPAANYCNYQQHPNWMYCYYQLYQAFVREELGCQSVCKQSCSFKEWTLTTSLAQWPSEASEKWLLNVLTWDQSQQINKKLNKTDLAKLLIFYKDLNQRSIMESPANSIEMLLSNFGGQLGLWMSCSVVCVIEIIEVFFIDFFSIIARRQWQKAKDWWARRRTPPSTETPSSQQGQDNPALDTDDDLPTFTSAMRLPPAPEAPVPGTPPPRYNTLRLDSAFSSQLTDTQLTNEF
# Target: epithelial sodium channel (ENaC) (Mus musculus, UniProt Q61180+Q9WU38+Q9WU39)
# Test: Ussing Chamber assay: inhibition of amiloride sensitive short circuit current (I_sc) in M-1 cells
# Conditions: mouse kidney M-1 cells on transwell filters, compound added to apical solution, 37° C.
# Protocol: Ussing Chamber: Mouse kidney M-1 cells were cultivated in DMEM containing 5% FCS and 5 μM dexamethasone for 10 to 12 days on polyester transwell filters. Filters were inserted into a teflon-coated well-plate which fit into the in-house ussing chamber system. Prior to measurement the medium of M-1 cells was replaced with Caco-2 transport buffer (Invitrogen, Germany). During measurements, the Ussing chamber temperature was kept at 37° C. Short circuit currents (I_sc) were measured in the voltage-clamp mode using an in-house built amplifier (Boehringer Ingelheim, Biberach) with the software package Lab View for data acquisition and analysis. The transepithelial electrical resistance (TEER) was determined by the application of voltage steps of ±5 mV every 5 sec. Compounds were administered at a final concentration of 3 μM or at increasing concentrations (e.g. 1-3-10 μM) to the apical solution. At the end of each experiment the amiloride sensitive I_SC was measured by adding 3 μM amiloride to the apical compartment. Results are expressed as inhibition in percent of the amiloride effect or as IC50.
# With the example compounds given above, the following IC50 values were determined in the Ussing Chamber assay: […]
compound,measurement,value
NC(=NC(=O)c1nc(Cl)c(N)nc1N)NC1CCN(CC(=O)Nc2ccc(C(=O)O)cc2)CC1,IC50,38 nM
